Source: US6476036B1, “Sodium salt of 3-(4-cinnamyl-1-piperazinyl)-imino-methyl rifamycin SV” (priority 1998, dated 2002)

Assay: Non-model pharmacokinetics in rabbits

Substance: sodium salt of 3-(4-cinnamyl-1-piperazinyl)-iminomethyl rifamycin SV [T-11]
- maintenance of constant therapeutical concentrations in the organism: about 100 hours
